Source: PubChem BioAssay AID1229 (Sanford-Burnham Center for Chemical Genomics, 2008)
Some of the results follow. The source made the active and inactive calls.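 The calls were made as follows: active = diaphorase activity raised at least twofold by the compound at 20 µM; inactive = activation factor below 2.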

assay: compounds boosting diaphorase resazurin reduction – biochemical, uHTS, resorufin fluorescence, counter-screen for diaphorase-coupled primary assays, primary screen (AID 1229); details: Diaphorase/resazurin coupled assay, 16 min, at 20 µM; active compounds read high, 1 = vehicle wells, 0 = NADH-free wells
Method in brief: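 Assay system: Purified diaphorase enzyme from Clostridium kluyveri | Amount: Enzyme 0.07 U/mL final | Dosing: Compound 20 µM once, DMSO 1% | Timing: 16 min reaction at room temperature | Detection: Fluorescence, excitation 544 nm and emission 590 nm | Evaluation: Higher resorufin formation from activation or reduction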

Row | SMILES | activation factor
1 | CCOP(C)(=S)SCC(=O)NC(C)C(=O)O (centres undefined) | inactive: 0.8
2 | CCOC(=O)c1ccc(NP(C)(=O)Oc2ccc(OC)cc2)cc1 (centres undefined) | inactive
3 | CP(=O)(Nc1ccccn1)Oc1ccc(Cl)cc1 (centres undefined) | inactive: 1.1
4 | CP(=O)(Oc1ccccc1)OC(c1ccccc1)C(F)(F)F (centres undefined) | inactive
5 | Cc1cccc(C)c1OP(C)(=O)Nc1ccc(SC(F)(F)F)cc1 (centres undefined) | inactive: 0.7
6 | Cc1cc(C)cc(OP(C)(=O)Nc2ccc(SC(F)(F)F)cc2)c1 (centres undefined) | inactive: 0.7
7 | CP(=O)(NC(=O)Nc1ccccc1)Oc1ccccc1 (centres undefined) | inactive
8 | O=C(COc1ccccc1)OC1CN2CCC1CC2 (centres undefined) | inactive
9 | CP(=S)(Nn1cnnc1)Oc1ccccc1 (centres undefined) | inactive
10 | COc1ccccc1OP(C)(=O)Nc1ccccc1 (centres undefined) | inactive
11 | CP(=O)(Nc1ccccc1Br)Oc1ccccc1 (centres undefined) | inactive
12 | Cc1cc(SC(NC(=O)c2ccccc2)C(Cl)(Cl)Cl)nc(C(C)C)n1 (centres undefined) | inactive
13 | ClCCSc1nnc(-c2cccnc2)o1 | inactive
14 | CCOC(=O)c1ccc(NP(C)(=O)Oc2ccccc2)cc1 (centres undefined) | inactive
15 | Cc1ccc(NP(C)(=O)Oc2ccccc2)c(C)c1 (centres undefined) | inactive: 1
16 | COc1ccccc1OP(C)(=O)Nc1ccc(C)cc1 (centres undefined) | inactive: 0.8
17 | O=[N+]([O-])c1cc([N+](=O)[O-])c(-c2ccn[nH]2)s1 | inactive

Row | SMILES | activation factor
18 | COc1ccc(OP(C)(=O)Nc2cccc(F)c2)cc1 (centres undefined) | inactive: 1
19 | CC(C)NC(=O)NP(=O)(Oc1ccccc1)Oc1ccccc1 | inactive
20 | COc1ccccc1OP(C)(=O)Nc1cc(Cl)ccc1C (centres undefined) | inactive
21 | Cc1cc(C)cc(OP(C)(N)=O)c1 (centres undefined) | inactive
22 | Cc1cccc(C)c1OP(C)(N)=O (centres undefined) | inactive: 1.1
23 | CC(C)(C)c1ccc(OP(C)(=O)Nc2ccc(SC(F)(F)F)cc2)cc1 (centres undefined) | inactive: 0.7
24 | O=[N+]([O-])c1ccc2c(c1)C=Nc1ccccc1O2 | inactive
25 | CCN(CC)CCCOC(=O)C(O)(c1ccccc1)c1ccccc1 | inactive
26 | COc1ccc2nc(NP(=O)(c3ccccc3)c3ccccc3)sc2c1 | inactive
27 | CP(=O)(Nc1cccc(Br)c1)Oc1ccccc1 (centres undefined) | inactive: 0.8
28 | Cc1cc(C)cc(OP(C)(=O)Nc2ccccn2)c1 (centres undefined) | inactive
29 | Cc1ccc(C)c(NP(C)(=O)Oc2ccccc2)c1 (centres undefined) | inactive: 1
30 | CCOP(=O)(Nc1cccc2ccccc12)OCC | inactive
31 | COc1cc(C(=O)NCC2(N3CCOCC3)CCCCC2)cc(Cl)c1OC(C)C | inactive
32 | Cc1cc(C)cc(OP(C)(=O)Nc2ccc(C)cc2C)c1 (centres undefined) | inactive
33 | Cc1cccc(OCC(=O)OC2CN3CCC2CC3)c1 (centres undefined) | inactive
34 | CCOC(=O)c1ccc(NP(C)(=O)Oc2cc(C)cc(C)c2)cc1 (centres undefined) | inactive: 1
